The text below walks through data of PubChem BioAssay AID504652 (National Center for Advancing Translational Sciences (NCATS), 2011).

Chains of the proteins cited; added tags and fusions are not shown.
UniProt P21728, whole entry, looked up: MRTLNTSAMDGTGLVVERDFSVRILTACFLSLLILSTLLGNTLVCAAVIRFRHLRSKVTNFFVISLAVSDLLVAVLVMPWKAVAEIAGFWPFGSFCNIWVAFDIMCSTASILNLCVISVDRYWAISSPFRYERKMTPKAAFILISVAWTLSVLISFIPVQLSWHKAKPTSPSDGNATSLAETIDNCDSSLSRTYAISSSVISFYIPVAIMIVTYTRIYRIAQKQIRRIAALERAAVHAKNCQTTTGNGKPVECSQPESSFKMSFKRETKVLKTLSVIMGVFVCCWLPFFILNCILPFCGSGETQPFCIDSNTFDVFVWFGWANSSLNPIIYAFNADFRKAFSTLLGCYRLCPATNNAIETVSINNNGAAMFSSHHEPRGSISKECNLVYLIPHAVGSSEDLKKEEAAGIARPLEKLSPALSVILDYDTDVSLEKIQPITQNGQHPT

The list shows a part of the results, in another mix than the full data. Calls of active or inactive are those of the source. Rule as the data show it: active = activity change below about -30%; inactive = the rest.
% is scaled to controls: 0 for no effect and ±100 for the full control effect.

This experiment has as its target D(1A) dopamine receptor (Homo sapiens) (UniProt P21728). The experiment in a line: Antagonist of Human D 1 Dopamine Receptor: qHTS. Particulars: HEK293 TREx D1 cells, calcium flux, dopamine EC80; at 10 µM; active compounds read low. In outline: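 Kinetic fluorescence of a calcium dye serves as the read-out. D1-expressing Hek293 Trex cells, induced overnight at 30 C, are exposed to compound for 180 s before an EC80 dopamine addition, then read 180 s further.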
(qHTS replaces the single test concentration by a dilution series.)
Regarding `CCOC(=O)Nc1ccc([As](=O)(O)O)c(O)c1`, the activity change, negative = inhibition is inactive: -2.24%. `CCCCOc1ccc(C(=O)NCC2(N3CCCCC3)CCCCC2)cc1OC`: the activity change, negative = inhibition is inactive: 0.106%. Then `Cc1cc(SC(NC(=O)c2ccccc2)C(Cl)(Cl)Cl)nc(C(C)C)n1` (stereo unspecified), with inactive: -9.56%. Then `O=P1(Nc2ncccn2)COc2ccccc2OC1`, with inactive: -18.5%; and `O=P1(Nc2ccc(Br)cn2)COc2ccccc2OC1`, with inactive: -5.77%; and `NS(=O)(=O)c1cccc(NC(=O)COC(=O)C(O)(c2ccccc2)c2ccccc2)c1`, with inactive: -7.07%. Consider `O=[As](O)(c1cccs1)c1cccs1`, for which the activity change, negative = inhibition is inactive: 6.74%.

`Cc1ccc(OCC(=O)OC2CN3CCC2CC3)cc1` (stereo unspecified): the activity change, negative = inhibition was inactive: -5.36%.

For the molecule `Nc1cccc([As](=O)(O)c2ccccc2)c1`, the activity change, negative = inhibition was inactive: -10.9%. Then `Cc1nn(-c2ccccc2)c2c1P(=O)(N1CCOCC1)N(C)C(c1ccccc1)=N2` (stereo unspecified), with inactive: -7.81%. As for `CC1CCC(C(C)C)C(OP(=O)(Nc2ccccn2)c2ccccc2)C1` (stereo unspecified), the activity change, negative = inhibition is inactive: -11.7%.

In the case of `Cc1ccc(C(=O)OC2CN3CCC2CC3)cc1` (stereo unspecified), the activity change, negative = inhibition was inactive: 0.766%. Regarding `O=C(/C=C/c1ccccc1)OC1CN2CCC1CC2` (stereo unspecified), the activity change, negative = inhibition was inactive: -0.906%. Consider `CN(C)C1(CNC(=O)c2ccc(S(C)(=O)=O)cc2)CCCCC1`, for which the activity change, negative = inhibition was inactive: -0.641%. As for `COc1ccccc1CNC(=O)COC(=O)C(O)(c1ccccc1)c1ccccc1`, the figure is inactive: -1.64%; as for `O=[As](O)(c1ccccc1Br)c1ccccc1Br`, inactive: 9.73%.

As to `CC(C)/C=N\N=C(\N)N[N+](=O)[O-]`, the activity change, negative = inhibition was inactive: 9.95%. Take `CN(C(=O)Cc1ccc(Cl)c(Cl)c1)[C@@H]1CCCC[C@H]1N1CCCC1`: the activity change, negative = inhibition is inactive: 14.9%. Then `CCOP(=O)(Nc1ccc(C)cn1)OCC`, with inactive: -3.69%; and `O=P1(Nc2ccccn2)COc2ccccc2OC1`, with inactive: 2.23%. As for `CCC1=CC2Cc3nc4ccc(Cl)cc4c(N)c3C(C1)C2` (stereo unspecified), the figure is inactive: -18.3%; as for `CCOP(=O)(NC(=NC(C)c1ccccc1)NC(C)c1ccccc1)OCC` (stereo unspecified), inactive: 6.4%. Turning to `Clc1n[nH]nc1-c1nn[nH][15n]1`, the activity change, negative = inhibition was active: -32.6%. With `CC(C)(C)C(=O)NC(Sc1ncccn1)C(Cl)(Cl)Cl` (stereo unspecified), the activity change, negative = inhibition was inactive: 11.9%. On to `CCCOP(=S)(Nc1nc(N)cc(=O)[nH]1)OCCC`, for which the activity change, negative = inhibition is inactive: -11.6%. As for `Nc1cccc2c([As](=O)(O)O)cccc12`, the activity change, negative = inhibition was inactive: 22.8%. Then `Cc1ccc(NCCc2c([N+](=O)[O-])cc([N+](=O)[O-])cc2[N+](=O)[O-])cc1`, with inactive: -8.41%; and `COc1cc(C2NCCC3(OCCO3)C2(C)C)cc(OC)c1OC` (stereo unspecified), with inactive: 1.57%; and `CCOP(=O)(Nc1cccc2ccccc12)OCC`, with inactive: 7.36%. As for `COc1cc(C(=O)NCC2(N3CCOCC3)CCCCC2)cc(Cl)c1OC(C)C`, the activity change, negative = inhibition is inactive: 10.6%.

For `O=[As](O)(O)c1cccnc1`, the activity change, negative = inhibition was inactive: 26.4%. Then `CS(=O)(=O)c1ccc(Cl)c(NC(=O)COC(=O)C(O)(c2ccccc2)c2ccccc2)c1`, with inactive: 10%; and `O=C(OC1CN2CCC1CC2)c1ccc(Cl)cc1` (stereo unspecified), with inactive: -6.98%; and `O=[As](O)(c1cccc(O)c1)c1cccc(O)c1`, with inactive: 7.69%. Then `Cc1cccc(OCC(=O)OC2CN3CCC2CC3)c1` (stereo unspecified), with inactive: -6.3%; and `NC(=O)Nc1ccc([As](=O)(O)O)cc1`, with inactive: 24.4%. With `O=[N+]([O-])c1ccc2c(c1)nnn2O`, the activity change, negative = inhibition was inactive: -24.2%. Consider `N#CCCN(C(=O)COC(=O)C(O)(c1ccccc1)c1ccccc1)c1ccc(F)cc1`, for which the activity change, negative = inhibition is inactive: 12.1%. For `CN(C(=O)Cc1ccccc1)[C@@H]1CC[C@]2(CCCO2)C[C@H]1N1CCCC1`, the activity change, negative = inhibition was inactive: 1.67%. Take `CCOP1(=S)c2c(C)nn(CCC#N)c2N=C(c2ccc(F)cc2)N1C` (stereo unspecified): the activity change, negative = inhibition was inactive: -15.3%. As for `CS(=O)(=O)c1cc([N+](=O)[O-])c2no[n+]([O-])c2c1`, the figure is inactive: 6.73%; as for `CCOP1(=S)c2c(C)nn(CCC#N)c2N=C(c2ccccc2F)N1C` (stereo unspecified), inactive: 5.59%; as for `O=P(Nc1nccs1)(c1ccccc1)c1nc2ccccc2s1` (stereo unspecified), inactive: 6.98%. As for `O=P(Nc1nccs1)(Oc1ccccc1)Oc1ccccc1`, the figure is inactive: -8.16%. As for `Nc1ccccc1[As](=O)(O)c1ccccc1`, the figure is inactive: -27%; as for `O=C(O)COc1ccc([As](=O)(O)O)cc1[N+](=O)[O-]`, inactive: -7.05%.
